Reference: US10221197B2, “Phosphatidylinositol 3-kinase inhibitors” (Gilead Sciences, Inc., priority 2014, dated 2019)

By UniProt entry, the sequences of proteins in these tests, tags left out. Where a name states a change or a piece, a line headed by the entry shows the natural chain unless it says otherwise.
UniProt O00329: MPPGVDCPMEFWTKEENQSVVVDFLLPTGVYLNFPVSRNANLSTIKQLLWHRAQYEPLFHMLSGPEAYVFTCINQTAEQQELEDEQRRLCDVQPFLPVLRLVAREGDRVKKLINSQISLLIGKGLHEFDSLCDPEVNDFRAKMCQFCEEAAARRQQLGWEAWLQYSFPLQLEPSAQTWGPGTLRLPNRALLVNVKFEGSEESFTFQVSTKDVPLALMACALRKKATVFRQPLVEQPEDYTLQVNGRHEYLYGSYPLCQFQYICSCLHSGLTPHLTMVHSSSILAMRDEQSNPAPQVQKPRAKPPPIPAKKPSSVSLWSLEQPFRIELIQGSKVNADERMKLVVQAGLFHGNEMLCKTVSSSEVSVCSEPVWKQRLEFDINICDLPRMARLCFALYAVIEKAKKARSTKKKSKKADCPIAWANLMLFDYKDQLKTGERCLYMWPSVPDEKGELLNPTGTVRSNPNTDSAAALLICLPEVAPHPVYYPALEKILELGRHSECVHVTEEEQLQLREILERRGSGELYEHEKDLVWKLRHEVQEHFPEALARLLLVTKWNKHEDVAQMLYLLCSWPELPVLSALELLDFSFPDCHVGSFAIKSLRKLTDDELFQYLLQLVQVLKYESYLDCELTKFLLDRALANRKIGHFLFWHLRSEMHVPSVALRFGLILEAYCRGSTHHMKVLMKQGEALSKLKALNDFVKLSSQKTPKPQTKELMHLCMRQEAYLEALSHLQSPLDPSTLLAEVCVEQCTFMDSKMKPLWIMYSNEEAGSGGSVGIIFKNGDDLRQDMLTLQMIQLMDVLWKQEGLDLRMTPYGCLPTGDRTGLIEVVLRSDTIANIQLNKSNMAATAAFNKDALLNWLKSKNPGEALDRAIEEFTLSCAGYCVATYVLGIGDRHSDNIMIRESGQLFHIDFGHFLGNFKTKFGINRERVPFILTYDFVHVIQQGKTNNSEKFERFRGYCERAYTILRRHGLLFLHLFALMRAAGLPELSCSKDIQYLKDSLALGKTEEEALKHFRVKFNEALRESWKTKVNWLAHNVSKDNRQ
UniProt P48736: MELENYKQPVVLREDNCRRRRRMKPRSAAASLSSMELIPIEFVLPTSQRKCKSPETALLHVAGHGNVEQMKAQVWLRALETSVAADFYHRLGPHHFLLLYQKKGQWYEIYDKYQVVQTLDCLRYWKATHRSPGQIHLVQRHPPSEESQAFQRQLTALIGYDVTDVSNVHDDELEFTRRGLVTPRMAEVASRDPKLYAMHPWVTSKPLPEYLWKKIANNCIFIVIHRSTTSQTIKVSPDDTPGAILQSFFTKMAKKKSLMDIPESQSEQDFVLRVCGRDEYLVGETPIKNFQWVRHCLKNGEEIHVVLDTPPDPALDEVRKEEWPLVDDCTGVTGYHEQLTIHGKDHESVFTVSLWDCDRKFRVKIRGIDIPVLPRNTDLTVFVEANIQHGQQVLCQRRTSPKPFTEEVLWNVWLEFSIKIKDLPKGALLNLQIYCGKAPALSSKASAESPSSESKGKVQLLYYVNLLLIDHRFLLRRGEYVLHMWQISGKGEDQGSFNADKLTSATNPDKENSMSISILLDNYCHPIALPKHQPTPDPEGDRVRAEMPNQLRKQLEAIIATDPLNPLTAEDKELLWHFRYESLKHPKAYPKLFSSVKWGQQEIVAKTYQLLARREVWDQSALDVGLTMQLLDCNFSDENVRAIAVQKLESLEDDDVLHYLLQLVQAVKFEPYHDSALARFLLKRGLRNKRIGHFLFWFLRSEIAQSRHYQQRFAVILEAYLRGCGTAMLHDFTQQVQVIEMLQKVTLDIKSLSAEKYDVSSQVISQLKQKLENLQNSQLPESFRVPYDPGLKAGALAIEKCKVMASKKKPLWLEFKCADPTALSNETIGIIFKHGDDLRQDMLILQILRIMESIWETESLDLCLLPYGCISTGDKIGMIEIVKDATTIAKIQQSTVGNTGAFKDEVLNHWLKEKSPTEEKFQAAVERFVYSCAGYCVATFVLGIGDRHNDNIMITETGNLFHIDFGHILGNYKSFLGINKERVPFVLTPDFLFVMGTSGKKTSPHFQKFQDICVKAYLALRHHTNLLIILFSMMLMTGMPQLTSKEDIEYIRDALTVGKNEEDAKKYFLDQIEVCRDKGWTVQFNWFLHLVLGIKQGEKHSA

These molecules were tested against PI3Kδ (Homo sapiens (Human), UniProt O00329) (assay: TR-FRET enzymatic assay of PI3K isoforms (PI3Kδ)). Conditions: 2×Km ATP, 2 μM PIP2, incubated for 30 minutes at 25° C., read-out: δ IC50.
Format: biochemical

Row | Structure (SMILES) | IC50 [nM]
1 | CCNC(=O)Nc1cccc(-n2c([C@H](C)Nc3ncnn4ccnc34)nc3cccc(Cl)c3c2=O)c1 [Compound 71, (S)-1-(3-(5-chloro-2-(1-(imidazo[2,1-f][1,2,4]triazin-4-ylamino)ethyl)-4-oxoquinazolin-3(4H)-yl)phenyl)-3-ethylurea] | 11
2 | COCCNC(=O)Nc1cccc(-n2c(C(C)Oc3ncnc4scnc34)nc3cccc(Cl)c3c2=O)c1 (stereo not drawn) [Compound 149, 1-(3-(5-chloro-4-oxo-2-(1-(thiazolo[5,4-d]pyrimidin-7-yloxy)ethyl)quinazolin-3(4H)-yl)phenyl)-3-(2-methoxyethyl)urea] | 11

Results, then the molecule that gave them:

Row | IC50 [nM] | Structure (SMILES)
3 | 230 | CCNC(=O)Nc1cccc(-n2c([C@@H](C)Nc3ncnc(N)c3C#N)nc3cccc(Cl)c3c2=O)c1 [Compound 44, (R)-1-(3-(2-(1-((6-amino-5-cyanopyrimidin-4-yl)amino)ethyl)-5-chloro-4-oxoquinazolin-3(4H)-yl)phenyl)-3-ethylurea]
4 | 7 | CCNC(=O)Nc1cccc(-n2c([C@H](C)Nc3ncnc(N)c3C#N)nc3cccc(Cl)c3c2=O)c1 [Compound 90, (S)-1-(3-(2-(1-((6-amino-5-cyanopyrimidin-4-yl)amino)ethyl)-5-chloro-4-oxoquinazolin-3(4H)-yl)phenyl)-3-ethylurea]

What follows are molecules tested against PI3Kγ (Homo sapiens (Human), UniProt P48736) (assay: TR-FRET enzymatic assay of PI3K isoforms (PI3Kγ)). Conditions: 2×Km ATP, 2 μM PIP2, PI3Kγ at 2 nM, incubated for 30 minutes at 25° C., read-out: γ IC50.
Format: biochemical

Row | IC50 [nM] | Structure (SMILES)
5 | 600 | N#Cc1c(N)nc(N)nc1N[C@H](c1nc2c(Cl)cc(F)cc2c(=O)n1-c1cccc(C(N)=O)c1)C1CC1 [Compound 27, (S)-3-(8-chloro-2-(cyclopropyl((2,6-diamino-5-cyanopyrimidin-4-yl)amino)methyl)-6-fluoro-4-oxoquinazolin-3(4H)-yl)benzamide]
6 | 7900 | CCNC(=O)Nc1cccc(-n2c([C@H](C)Nc3ncnc(N)c3C#N)nc3cccc(C(F)(F)F)c3c2=O)c1 [Compound 51, (S)-1-(3-(2-(1-((6-amino-5-cyanopyrimidin-4-yl)amino)ethyl)-4-oxo-5-(trifluoromethyl)quinazolin-3(4H)-yl)phenyl)-3-ethylurea]
